Experimental data taken from patent US8759528B2, “Piperidine derivatives, pharmaceutical compositions and uses thereof” (Boehringer Ingelheim International GmbH, priority 2011, dated 2014).

The chains behind the UniProt entries cited, without tags or fusion partners. Residues count along the entry.
UniProt O00763, 129-2458 limits assumed: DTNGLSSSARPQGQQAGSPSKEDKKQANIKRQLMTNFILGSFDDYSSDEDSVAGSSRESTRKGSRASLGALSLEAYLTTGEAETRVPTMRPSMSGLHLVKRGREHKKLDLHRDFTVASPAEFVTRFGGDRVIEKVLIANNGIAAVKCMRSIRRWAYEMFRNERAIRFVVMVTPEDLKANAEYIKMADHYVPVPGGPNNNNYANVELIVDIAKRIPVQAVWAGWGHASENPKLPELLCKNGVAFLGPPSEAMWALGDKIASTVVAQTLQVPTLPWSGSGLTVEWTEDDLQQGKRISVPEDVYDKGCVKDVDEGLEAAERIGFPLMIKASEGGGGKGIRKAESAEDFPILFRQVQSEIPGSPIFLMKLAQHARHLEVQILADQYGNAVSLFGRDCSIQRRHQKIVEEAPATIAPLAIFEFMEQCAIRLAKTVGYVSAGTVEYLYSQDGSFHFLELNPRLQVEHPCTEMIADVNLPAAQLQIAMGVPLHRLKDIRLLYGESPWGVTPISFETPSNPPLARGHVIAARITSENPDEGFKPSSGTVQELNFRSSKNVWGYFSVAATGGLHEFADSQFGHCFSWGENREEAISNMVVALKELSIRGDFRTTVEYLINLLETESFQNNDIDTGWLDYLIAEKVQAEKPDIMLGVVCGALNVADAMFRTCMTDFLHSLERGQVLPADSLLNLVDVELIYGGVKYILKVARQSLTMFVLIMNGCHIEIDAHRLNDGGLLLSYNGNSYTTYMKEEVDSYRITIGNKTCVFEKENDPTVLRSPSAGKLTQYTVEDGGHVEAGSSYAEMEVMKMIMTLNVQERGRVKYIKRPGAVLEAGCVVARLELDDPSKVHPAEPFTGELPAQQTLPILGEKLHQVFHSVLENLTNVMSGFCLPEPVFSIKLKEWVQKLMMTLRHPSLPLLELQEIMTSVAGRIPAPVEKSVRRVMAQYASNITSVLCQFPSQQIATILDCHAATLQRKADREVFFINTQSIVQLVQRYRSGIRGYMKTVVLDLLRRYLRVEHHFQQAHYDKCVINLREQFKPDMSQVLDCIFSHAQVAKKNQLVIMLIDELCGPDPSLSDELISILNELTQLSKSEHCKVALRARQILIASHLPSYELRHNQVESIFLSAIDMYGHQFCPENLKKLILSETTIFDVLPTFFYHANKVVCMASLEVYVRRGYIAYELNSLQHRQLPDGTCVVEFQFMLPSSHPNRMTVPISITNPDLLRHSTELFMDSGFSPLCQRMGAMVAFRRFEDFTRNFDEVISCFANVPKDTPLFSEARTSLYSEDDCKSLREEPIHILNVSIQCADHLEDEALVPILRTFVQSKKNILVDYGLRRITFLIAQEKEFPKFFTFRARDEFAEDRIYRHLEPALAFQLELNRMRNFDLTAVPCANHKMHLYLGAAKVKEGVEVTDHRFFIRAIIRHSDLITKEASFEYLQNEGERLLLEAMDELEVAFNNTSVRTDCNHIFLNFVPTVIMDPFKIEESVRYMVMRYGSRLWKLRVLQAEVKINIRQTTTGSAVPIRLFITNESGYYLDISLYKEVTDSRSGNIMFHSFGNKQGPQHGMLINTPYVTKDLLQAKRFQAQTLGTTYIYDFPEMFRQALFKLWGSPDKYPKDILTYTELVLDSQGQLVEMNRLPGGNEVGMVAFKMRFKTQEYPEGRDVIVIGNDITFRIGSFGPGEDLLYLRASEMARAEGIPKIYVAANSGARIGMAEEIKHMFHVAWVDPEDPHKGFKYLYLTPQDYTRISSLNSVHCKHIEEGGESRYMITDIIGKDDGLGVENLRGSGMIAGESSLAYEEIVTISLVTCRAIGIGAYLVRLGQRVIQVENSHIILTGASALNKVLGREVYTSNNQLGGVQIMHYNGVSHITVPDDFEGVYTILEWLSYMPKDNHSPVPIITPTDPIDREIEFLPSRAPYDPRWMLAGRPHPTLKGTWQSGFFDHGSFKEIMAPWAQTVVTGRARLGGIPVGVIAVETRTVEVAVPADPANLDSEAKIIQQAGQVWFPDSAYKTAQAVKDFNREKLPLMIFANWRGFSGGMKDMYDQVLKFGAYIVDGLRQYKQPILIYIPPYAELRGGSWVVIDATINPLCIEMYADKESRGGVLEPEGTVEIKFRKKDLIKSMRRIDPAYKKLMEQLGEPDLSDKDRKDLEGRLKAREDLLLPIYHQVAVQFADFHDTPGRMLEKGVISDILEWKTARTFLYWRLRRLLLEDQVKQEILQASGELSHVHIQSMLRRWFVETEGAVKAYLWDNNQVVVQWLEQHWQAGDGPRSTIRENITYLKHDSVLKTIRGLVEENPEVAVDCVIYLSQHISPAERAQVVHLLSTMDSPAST

Molecular target: human ACC2 (Homo sapiens, UniProt O00763)
Test: ACC2 spectrophotometric 384 well assay (NADH-linked, coupled lactate dehydrogenase/pyruvate kinase)
Conditions: hACC2 construct lacking the 128 N-terminal amino acids; 25° C., 340 nm, 15 minutes
Procedure: Spectrophotometric 384 Well Assay
Malonyl CoA formation by acetyl CoA carboxylases is stoichometrically linked to the consumption of ATP. ACC2 activity is measured in a NADH-linked kinetic method measuring ADP generated during the ACC reaction using a coupled lactate dehydrogenase/pyruvate kinase reaction.
For biological testing, a human ACC2 construct which lacks the 128 amino acids at the N-terminus for increased solubility (nt 385-6966 in Genbank entry AJ575592) is cloned. The protein is then expressed in insect cells using a baculoviral expression system. Protein purification is performed by anion exchange. All compounds are dissolved in dimethyl sulfoxide (DMSO) to a concentration of 10 mM.
Assay reactions are then carried out in 384-well plates, with hACC2 in an appropriate dilution and at final assay concentrations (f.c.) of 100 mM Tris (pH 7.5), 10 mM trisodium citrate, 25 mM KHCO3, 10 mM MgCl2, 0.5 mg/ml BSA, 3.75 mM reduced L-glutathione, 15 U/ml lactate dehydrogenase, 0.5 mM phosphoenolpyruvate, 15 U/ml pyruvate kinase, compounds at different concentrations at final DMSO concentrations of 1%.
The enzymatic reaction is then started by addition of a mixture of NADH, acetyl Coenzyme A (both […].) and ATP (500 uM f.c.). The decrease of the optical density (slope S) is then determined at 25° C. at a wavelength of 340 nm over 15 minutes in a spectrophotometric reader. […]

IC50: 590 nM
Structure (SMILES): CCNC(=O)C(C)c1ccc(C2CCN(c3ccc(OCC)cc3OC)CC2)cc1 (stereo not shown)
